Source: US11541028B2, “Peptide pharmaceuticals for treatment of NASH and other disorders” (Mederis Diabetes LLC, priority 2018, dated 2023)

By UniProt entry, the sequences of proteins in these tests, tags left out. Residues count along the entry.
UniProt O35659, 22-463 limits assumed: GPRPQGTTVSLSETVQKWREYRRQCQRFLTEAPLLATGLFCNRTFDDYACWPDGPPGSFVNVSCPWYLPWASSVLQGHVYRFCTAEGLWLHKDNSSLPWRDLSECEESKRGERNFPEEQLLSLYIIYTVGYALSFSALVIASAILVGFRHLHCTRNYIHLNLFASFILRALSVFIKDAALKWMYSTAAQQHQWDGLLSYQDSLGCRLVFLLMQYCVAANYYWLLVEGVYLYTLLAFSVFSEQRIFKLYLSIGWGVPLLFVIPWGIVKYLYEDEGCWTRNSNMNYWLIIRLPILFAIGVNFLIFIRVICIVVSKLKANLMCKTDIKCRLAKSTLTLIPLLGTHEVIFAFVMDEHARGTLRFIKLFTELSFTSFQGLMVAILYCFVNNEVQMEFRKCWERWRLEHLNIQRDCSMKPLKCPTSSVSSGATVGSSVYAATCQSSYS

target: GLP-1 R (Mus musculus, UniProt O35659); assay: Cerep cellular assay, stimulation of cAMP levels, GLP-1 (murine cell line); details: n.c. = EC50 not calculable

EC50 GLP-1 R (nM), n.c.:
CCCCCCCCCCCCO[C@@H]1O[C@H](C(=O)NCCCC[C@H](NC(=O)[C@H](CC(=O)O)NC(=O)[C@H](CC(C)C)NC(=O)[C@H](Cc2ccc(O)cc2)NC(=O)[C@H](CCCCN)NC(=O)[C@H](CO)NC(=O)[C@H](Cc2ccc(O)cc2)NC(=O)[C@H](CC(=O)O)NC(=O)[C@H](CO)NC(=O)[C@@H](NC(=O)[C@H](Cc2ccccc2)NC(=O)[C@@H](NC(=O)CNC(=O)[C@H](CCC(N)=O)NC(=O)C(C)(C)NC(=O)[C@@H](N)Cc2cnc[nH]2)[C@@H](C)O)[C@@H](C)O)C(=O)N[C@@H](CCCCNC(=N)N)C(=O)NC(C)(C)C(N)=O)[C@@H](O)[C@H](O)[C@H]1O
CCCCCCCCCCCCO[C@@H]1O[C@H](C(=O)NCCCC[C@H](NC(=O)[C@H](CC(=O)O)NC(=O)[C@H](CC(C)C)NC(=O)[C@H](Cc2ccc(O)cc2)NC(=O)[C@H](CCCCN)NC(=O)[C@H](CO)NC(=O)[C@H](Cc2ccc(O)cc2)NC(=O)[C@H](CC(=O)O)NC(=O)[C@H](CO)NC(=O)[C@@H](NC(=O)[C@H](Cc2ccccc2)NC(=O)[C@@H](NC(=O)CNC(=O)[C@H](CCC(N)=O)NC(=O)C(C)(C)NC(=O)[C@@H](N)Cc2cnc[nH]2)[C@@H](C)O)[C@@H](C)O)C(=O)NC(C)(C)C(N)=O)[C@@H](O)[C@H](O)[C@H]1O
CCCCCCCCCCCCO[C@@H]1O[C@H](C(=O)NCCCC[C@H](NC(=O)C(C)(C)NC(=O)[C@H](CCCNC(=N)N)NC(=O)[C@H](CC(=O)O)NC(=O)[C@H](CC(C)C)NC(=O)[C@H](Cc2ccc(O)cc2)NC(=O)[C@H](CCCCN)NC(=O)[C@H](CO)NC(=O)[C@H](Cc2ccc(O)cc2)NC(=O)[C@H](CC(=O)O)NC(=O)[C@H](CO)NC(=O)[C@@H](NC(=O)[C@H](Cc2ccccc2)NC(=O)[C@@H](NC(=O)CNC(=O)[C@H](CCC(N)=O)NC(=O)C(C)(C)NC(=O)[C@@H](N)Cc2cnc[nH]2)[C@@H](C)O)[C@@H](C)O)C(N)=O)[C@@H](O)[C@H](O)[C@H]1O
CCCCCCCCCCCCO[C@@H]1O[C@H](C(=O)NCCCC[C@H](NC(=O)C(C)(C)NC(=O)[C@H](CCCNC(=N)N)NC(=O)C(C)(C)NC(=O)[C@H](CC(=O)O)NC(=O)[C@H](CC(C)C)NC(=O)[C@H](Cc2ccc(O)cc2)NC(=O)[C@H](CCCCN)NC(=O)[C@H](CO)NC(=O)[C@H](Cc2ccc(O)cc2)NC(=O)[C@H](CC(=O)O)NC(=O)[C@H](CO)NC(=O)[C@@H](NC(=O)[C@H](Cc2ccccc2)NC(=O)[C@@H](NC(=O)CNC(=O)[C@H](CCC(N)=O)NC(=O)C(C)(C)NC(=O)[C@@H](N)Cc2cnc[nH]2)[C@@H](C)O)[C@@H](C)O)C(N)=O)[C@@H](O)[C@H](O)[C@H]1O
CCCCCCCCCCCCO[C@@H]1O[C@H](C(=O)NCCCC[C@H](NC(=O)[C@H](CCCNC(=N)N)NC(=O)[C@H](CCCNC(=N)N)NC(=O)[C@H](CO)NC(=O)[C@H](CC(=O)O)NC(=O)[C@H](CC(C)C)NC(=O)[C@H](Cc2ccc(O)cc2)NC(=O)[C@H](CCCCN)NC(=O)[C@H](CO)NC(=O)[C@H](Cc2ccc(O)cc2)NC(=O)[C@H](CC(=O)O)NC(=O)[C@H](CO)NC(=O)[C@@H](NC(=O)[C@H](Cc2ccccc2)NC(=O)[C@@H](NC(=O)CNC(=O)[C@H](CCC(N)=O)NC(=O)[C@H](CO)NC(=O)[C@@H](N)Cc2cnc[nH]2)[C@@H](C)O)[C@@H](C)O)C(=O)NC(C)(C)C(N)=O)[C@@H](O)[C@H](O)[C@H]1O
CCCCCCCCCCCCO[C@@H]1O[C@H](C(=O)NCCCC[C@H](NC(=O)[C@H](CC(=O)O)NC(=O)[C@H](CC(C)C)NC(=O)[C@H](Cc2ccc(O)cc2)NC(=O)[C@H](CCCCN)NC(=O)[C@H](CO)NC(=O)[C@H](Cc2ccc(O)cc2)NC(=O)[C@H](CC(=O)O)NC(=O)[C@H](CO)NC(=O)[C@@H](NC(=O)[C@H](Cc2ccccc2)NC(=O)[C@@H](NC(=O)CNC(=O)[C@H](CCC(N)=O)NC(=O)C(C)(C)NC(=O)[C@@H](N)Cc2cnc[nH]2)[C@@H](C)O)[C@@H](C)O)C(=O)N[C@@H](CCCNC(=N)N)C(=O)N[C@@H](CCCNC(=N)N)C(=O)NC(C)(C)C(N)=O)[C@@H](O)[C@H](O)[C@H]1O
CCCCCCCCCCCCO[C@@H]1O[C@H](C(=O)NCCCC[C@H](NC(=O)[C@H](CC(=O)O)NC(=O)[C@H](CC(C)C)NC(=O)[C@H](Cc2ccc(O)cc2)NC(=O)[C@H](CCCCN)NC(=O)[C@H](CO)NC(=O)[C@H](Cc2ccc(O)cc2)NC(=O)[C@H](CC(=O)O)NC(=O)[C@H](CO)NC(=O)[C@@H](NC(=O)[C@H](Cc2ccccc2)NC(=O)[C@@H](NC(=O)CNC(=O)[C@H](CCC(N)=O)NC(=O)C(C)(C)NC(=O)[C@@H](N)Cc2cnc[nH]2)[C@@H](C)O)[C@@H](C)O)C(=O)N[C@@H](CCCNC(=N)N)C(=O)NC(C)(C)C(N)=O)[C@@H](O)[C@H](O)[C@H]1O
CCCCCCCCCCCCO[C@@H]1O[C@H](C(=O)NCCCC[C@H](NC(=O)[C@H](CC(=O)O)NC(=O)[C@H](CC(C)C)NC(=O)[C@H](Cc2ccc(O)cc2)NC(=O)[C@H](CCCCN)NC(=O)[C@H](CO)NC(=O)[C@H](Cc2ccc(O)cc2)NC(=O)[C@H](CC(=O)O)NC(=O)[C@H](CO)NC(=O)[C@@H](NC(=O)[C@H](Cc2ccccc2)NC(=O)[C@@H](NC(=O)CNC(=O)[C@H](CCC(N)=O)NC(=O)C(C)(C)NC(=O)[C@@H](N)Cc2cnc[nH]2)[C@@H](C)O)[C@@H](C)O)C(=O)NC(C)(C)C(=O)N[C@@H](CCCNC(=N)N)C(N)=O)[C@@H](O)[C@H](O)[C@H]1O
